{
  "source": "patent EP4834343A1",
  "about": "“THERAPEUTIC AGENT FOR NEURODEGENERATIVE DISORDER” (dated 2026)",
  "key": {"[1]": {"test_system": "PD patients with no combined use of levodopa", "experiment": "Clinical Test 1 on PD patients: effectiveness (MDS-UPDRS Part III total score)", "conditions": "average ± standard deviation; oral once a day for 12 weeks, gradually increased (Compound 2 0.25-1 mg/day; PPX-LA 0.375-4.5 mg/day)", "protocol": "(§1) The MDS-UPDRS scores, which are one of the most representative indicators, consist of four parts (that is, Part I to Part IV), and cognitive function and mood disorders, daily life behavior, motor symptoms, motor complications are evaluated in Part I, Part II, Part III, and Part IV, respectively. In the evaluation of amelioration of motor symptoms, scores in Part III are particularly used, and lower scores from the baseline indicate higher amelioration effects.\n(§2) Oral administration of Compound 2 in a daily dose of 0.25 mg once a day was started, and the oral administration was conducted once a day while the amount was increased by one stage (0.25 mg as a daily dose) in the order of 0.5 mg, 0.75 mg, and 1 mg as a daily dose unless criteria for not increasing the amount (such as a case where an adverse event with a causal relationship with the investigational drug was recognized and a case where a principal investigator or a sub-investigator determined that there was some safety problem) were met at the timing of 2 weeks, 4 weeks, and 6 weeks of administering the investigational drug. In a case where the criteria for not increasing the amount were met and it was determined to be possible to continue the investigation, the same dose was continuously administered. […]"}, "[2]": {"test_system": "PD patients with no combined use of levodopa", "experiment": "Clinical Test 1 on PD patients: somnolence evaluation (ESS total score)", "conditions": "for ESS total scores: average ± standard deviation", "source_text": "(§3) In the present invention, \"the risk of somnolence as a side effect\" of the non-ergot DAs means a risk of developing somnolence in the daytime, which is a safety issue of the non-ergot DAs. The degree of \"the reduction of the risk of somnolence as a side effect\" achieved by the pharmaceutical composition of the present invention can also be evaluated, for example, by ESS total scores. ESS is a self-managed questionnaire, and is a measure for subjects to evaluate their daytime sleepiness and doze propensity by answering eight questions. The ESS scores (sums of scores for eight items; 0 points to 3 points for each item) range from 0 to 24, and a normal range is 10 points or less. The higher the ESS scores, the higher the average sleep trend or daytime sleepiness in daily lives of the subjects (epworthsleepinessscale.com), and scores that are equal to or higher than 11 points are evaluated as pathological hypersomnia (diagnosis of narcolepsy, treatment guideline item). The effect of \"reducing the risk of somnolence as a side effect\" achieved by the pharmaceutical composition of the present invention can also be evaluated by, for example, a decrease in incidence rate compared to the developed states of adverse events and side effects by other non-ergot DAs, or a decrease in incidence rate and a decrease in degree of somnolence compared to the incidence frequency of somnolence during the daytime before administration of the pharmaceutical composition of the invention.\nas §2, with “administered. Note that even in the case where the same dose was continuously administered, the amount was increased when the criteria for not increasing the amount were not met at the next point of increasing the amount (at 4 weeks and 6 weeks). Hereinafter, this group will be referred to as Compound 2 administration group.” for “administered.”\n(§4) As evaluation items related to safety, ESS total scores, adverse event developed states, side effect developed states, and the like were evaluated."}, "[3]": {"test_system": "PD patients with no combined use of levodopa", "experiment": "Clinical Test 1 on PD patients: side effects (adverse drug reactions)", "conditions": "n = 37 per group", "protocol": "Oral administration of Compound 2 in a daily dose of 0.25 mg once a day was started, and the oral administration was conducted once a day while the amount was increased by one stage (0.25 mg as a daily dose) in the order of 0.5 mg, 0.75 mg, and 1 mg as a daily dose unless criteria for not increasing the amount (such as a case where an adverse event with a causal relationship with the investigational drug was recognized and a case where a principal investigator or a sub-investigator determined that there was some safety problem) were met at the timing of 2 weeks, 4 weeks, and 6 weeks of administering the investigational drug. In a case where the criteria for not increasing the amount were met and it was determined to be possible to continue the investigation, the same dose was continuously administered. Note that even in the case where the same dose was continuously administered, the amount was increased when the criteria for not increasing the amount were not met at the next point of increasing the amount (at 4 weeks and 6 weeks). Hereinafter, this group will be referred to as Compound 2 administration group.\nOral administration of pramipexole hydrochloride hydrate extended-release tablet (PPX-LA) in a daily dose of 0.375 mg once a day was started, and the oral administration was conducted once a day while the amount was increased by one stage (0.375 mg or 0.75 mg as a daily dose) in the order of 0.75 mg, 1.5 mg, 2.25 mg, 3 mg, 3.75 mg, and 4.5 mg as a daily dose unless criteria for not increasing the amount were met at the timing of 1 week, 2 weeks, 3 weeks, 4 weeks, 5 weeks, and 6 weeks of administering the investigational drug. In a case where the criteria for not increasing the amount were met and it was determined to be possible to continue the investigation, the same dose was continuously administered. Note that even in the case where the same dose was continuously administered, the amount was increased when the criteria for not increasing the amount were not met at the next point of increasing the amount (at 2 weeks, 3 weeks, 4 weeks, 5 weeks, and 6 weeks). Hereinafter, this group will be referred to as the PPX-LA administration group.\nas §4"}, "[4]": {"test_system": "PD patients with no combined use of levodopa", "experiment": "Clinical Test 2 on PD patients: effectiveness (MDS-UPDRS Part III total score)", "conditions": "average ± standard deviation; 7 PD patients, oral once a day for 8 weeks, gradually increased 0.25-2 mg/day", "protocol": "as §1\nOral administration of Compound 2 in a daily dose of 0.25 mg once a day was started, and the oral administration was conducted once a day while the amount was increased by one stage (0.25 mg or 0.5 mg as the amount administered once a day) in the order of 0.5 mg, 1 mg, 1.5 mg, and 2 mg as a daily dose unless criteria for not increasing the amount were met at the timing of 1 week, 2 weeks, 4 weeks, and 6 weeks of administering the investigational drug. In a case where the criteria for not increasing the amount were met and it was determined to be possible to continue the investigation, the same dose was continuously administered. […]\n(§5) As evaluation items regarding effectiveness and safety, items similar to those in Example 1 were evaluated."}, "[5]": {"test_system": "PD patients with no combined use of levodopa", "experiment": "Clinical Test 2 on PD patients: somnolence evaluation (ESS total score)", "conditions": "for proportions of subjects with the ESS total scores of 11 points or more: Clinical Test 2, 7 cases; for ESS total scores: average ± standard deviation", "source_text": "as §3\n(§6) Oral administration of Compound 2 in a daily dose of 0.25 mg once a day was started, and the oral administration was conducted once a day while the amount was increased by one stage (0.25 mg or 0.5 mg as the amount administered once a day) in the order of 0.5 mg, 1 mg, 1.5 mg, and 2 mg as a daily dose unless criteria for not increasing the amount were met at the timing of 1 week, 2 weeks, 4 weeks, and 6 weeks of administering the investigational drug. In a case where the criteria for not increasing the amount were met and it was determined to be possible to continue the investigation, the same dose was continuously administered. Note that even in the case where the same dose was continuously administered, the amount was increased when the criteria for not increasing the amount were not met at the next point of increasing the amount (at 2 weeks, 4 weeks, and 6 weeks).\nas §5"}, "[6]": {"test_system": "PD patients with no combined use of levodopa", "experiment": "Clinical Test 2 on PD patients: side effects", "conditions": "investigational drug administration period", "protocol": "as §6, §5"}},
  "data": [
    {"smiles": "CCCN(C(=O)NCCN(C)C)C(=O)[C@@H]1C[C@@H]2Cc3c(sc(N)c3C#N)C[C@H]2N(C)C1", "values": [
      {"measurement": "amounts of change in MDS-UPDRS Part III total scores at the treatment phase final evaluation from the baseline", "setting": "[1]", "result": "-11.5 ± 7.6"},
      {"measurement": "proportions of subjects with ESS total scores of 11 points or more", "setting": "[2]; at 0 weeks, Clinical Test 1", "result": 21.6, "unit": "%"},
      {"measurement": "ESS total scores", "setting": "[2]; at 0 weeks, Clinical Test 1", "result": "5.8 ± 4.9"},
      {"measurement": "proportions of subjects with ESS total scores of 11 points or more", "setting": "[2]; at the treatment phase final evaluation, Clinical Test 1", "result": 13.5, "unit": "%"},
      {"measurement": "ESS total scores", "setting": "[2]; at the treatment phase final evaluation, 12 weeks oral once a day, gradually increased", "result": "5.6 ± 5.7"},
      {"measurement": "No. of Adverse drug reactions: Total, % (incidence rates of side effects)", "setting": "[3]; investigational drug administration period", "result": 13.5, "unit": "%"},
      {"measurement": "Adverse drug reactions: Abdominal discomfort, %", "setting": "[3]", "result": 0.0, "unit": "%"},
      {"measurement": "Adverse drug reactions: Anxiety, %", "setting": "[3]", "result": 0.0, "unit": "%"},
      {"measurement": "Adverse drug reactions: Constipation, %", "setting": "[3]", "result": 8.1, "unit": "%"},
      {"measurement": "Adverse drug reactions: Hallucination, auditory, %", "setting": "[3]", "result": 0.0, "unit": "%"},
      {"measurement": "Adverse drug reactions: Hallucination, visual, %", "setting": "[3]", "result": 0.0, "unit": "%"},
      {"measurement": "Adverse drug reactions: Inappropriate affect, %", "setting": "[3]", "result": 0.0, "unit": "%"},
      {"measurement": "Adverse drug reactions: Insomnia, %", "setting": "[3]", "result": 2.7, "unit": "%"},
      {"measurement": "Adverse drug reactions: Nausea, %", "setting": "[3]", "result": 0.0, "unit": "%"},
      {"measurement": "Adverse drug reactions: Somnolence, %", "setting": "[3]", "result": 2.7, "unit": "%"},
      {"measurement": "Adverse drug reactions: Sudden onset of sleep, %", "setting": "[3]", "result": 0.0, "unit": "%"},
      {"measurement": "Adverse drug reactions: Vomiting, %", "setting": "[3]", "result": 0.0, "unit": "%"},
      {"measurement": "amounts of change in MDS-UPDRS Part III total scores at the treatment phase final evaluation from the baseline", "setting": "[4]", "result": "-15.1 ± 9.0"},
      {"measurement": "proportions of subjects with the ESS total scores of 11 points or more", "setting": "[5]; at 0 weeks", "result": 28.6, "unit": "%"},
      {"measurement": "ESS total scores", "setting": "[5]; at 0 weeks, Clinical Test 2, 7 patients", "result": "7.7 ± 8.4"},
      {"measurement": "proportions of subjects with the ESS total scores of 11 points or more", "setting": "[5]; at the treatment phase final evaluation", "result": 28.6, "unit": "%"},
      {"measurement": "ESS total scores", "setting": "[5]; at the treatment phase final evaluation, 8 weeks, 0.25-2 mg/day", "result": "8.4 ± 9.0"},
      {"measurement": "side effect \"somnolence\"", "setting": "[6]; 7 cases, up to 2 mg/day", "result": "not observed"},
      {"measurement": "side effect \"hallucination\" observed", "setting": "[6]; out of 7 cases, degree mild", "result": 1, "unit": "case"},
      {"measurement": "side effect \"nausea\" observed", "setting": "[6]; out of 7 cases, degree mild", "result": 1, "unit": "case"}
    ]}
  ]
}
